Assay results published in patent US20040092428A1, “Oral pharmaceuticals formulation comprising paclitaxel, derivatives and methods of administration thereof” (priority 2001, published 2004).

Protein sequences, listed by entry. Tags and fused reporters are not part of them.
UniProt P08183, whole entry: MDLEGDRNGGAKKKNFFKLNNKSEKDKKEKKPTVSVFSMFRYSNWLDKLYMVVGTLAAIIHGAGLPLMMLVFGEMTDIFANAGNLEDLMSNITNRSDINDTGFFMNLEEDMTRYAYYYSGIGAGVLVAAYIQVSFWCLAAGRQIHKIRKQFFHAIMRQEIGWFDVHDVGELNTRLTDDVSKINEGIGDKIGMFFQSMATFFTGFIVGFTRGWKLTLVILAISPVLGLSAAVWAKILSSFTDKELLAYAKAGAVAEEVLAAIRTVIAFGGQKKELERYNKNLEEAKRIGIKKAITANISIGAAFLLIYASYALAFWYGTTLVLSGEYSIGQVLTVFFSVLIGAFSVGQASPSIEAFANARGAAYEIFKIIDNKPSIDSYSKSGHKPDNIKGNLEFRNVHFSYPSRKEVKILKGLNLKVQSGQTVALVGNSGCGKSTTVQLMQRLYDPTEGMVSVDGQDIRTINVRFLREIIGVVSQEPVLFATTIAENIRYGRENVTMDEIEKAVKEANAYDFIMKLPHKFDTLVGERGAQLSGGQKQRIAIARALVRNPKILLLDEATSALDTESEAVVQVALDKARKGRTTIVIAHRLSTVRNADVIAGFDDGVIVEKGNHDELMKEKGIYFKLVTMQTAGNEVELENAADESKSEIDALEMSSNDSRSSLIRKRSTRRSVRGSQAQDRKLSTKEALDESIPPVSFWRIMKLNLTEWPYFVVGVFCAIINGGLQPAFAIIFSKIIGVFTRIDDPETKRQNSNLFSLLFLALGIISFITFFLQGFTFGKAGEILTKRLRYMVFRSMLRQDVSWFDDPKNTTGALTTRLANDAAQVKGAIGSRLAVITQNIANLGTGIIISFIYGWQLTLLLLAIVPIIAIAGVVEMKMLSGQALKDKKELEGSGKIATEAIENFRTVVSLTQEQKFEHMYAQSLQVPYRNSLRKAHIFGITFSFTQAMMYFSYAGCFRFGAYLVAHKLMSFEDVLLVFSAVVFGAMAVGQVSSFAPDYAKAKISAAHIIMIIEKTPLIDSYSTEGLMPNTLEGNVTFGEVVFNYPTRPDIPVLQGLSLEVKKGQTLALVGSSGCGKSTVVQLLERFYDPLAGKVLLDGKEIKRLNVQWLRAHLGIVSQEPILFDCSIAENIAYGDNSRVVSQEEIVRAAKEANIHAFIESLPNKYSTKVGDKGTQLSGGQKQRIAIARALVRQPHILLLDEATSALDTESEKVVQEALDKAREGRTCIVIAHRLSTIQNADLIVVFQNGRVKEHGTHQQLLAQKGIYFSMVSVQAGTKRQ

target: P-glycoprotein (Homo sapiens, UniProt P08183)
Protocol: P-glycoprotein inhibition has been determined with an in vitro assay. […] Therefore, the initial pool of compounds screened included excipients that were acceptable for oral or IV use and included PEG in the chemical structure. Compounds were first screened for toxicity in the NIH3T3 cell line and then tested for P-gp inhibition with paclitaxel using the protocol outlined below:
Day 0: Seed cells and incubate.
Day 1: Add potential P-gp inhibitor at fixed concentration and paclitaxel at various concentrations and incubate for 2 days.
Day 3: Add MTT and extraction/lysis buffer.
Day 4: Read absorbance to measure cell growth. Calculate IC50 to determine amount of paclitaxel required for cell death
After calculations of IC50 values, relative rank order of the compounds were determined.

**Q.** For PEG-45 stearate, which “P-gp inhibition measured by an IC50 ratio” value is on record?
**A.** > 1.0

**Q.** How did the “P-gp inhibition measured by an IC50 ratio” value turn out when polysorbate 40 was run?
**A.** > 1.0

**Q.** PEG 50 stearate was tested. Which “P-gp inhibition measured by an IC50 ratio” value did it give?
**A.** > 1.0

**Q.** PEG-20 stearate was tested. Which “P-gp inhibition measured by an IC50 ratio” value did it give?
**A.** > 1.0

**Q.** With PEG-40 stearate as the substance, how does the “P-gp inhibition measured by an IC50 ratio” value read?
**A.** > 1.0

**Q.** Which “P-gp inhibition measured by an IC50 ratio” value does the source give for polysorbate 60 here?
**A.** > 1.0

**Q.** Which “P-gp inhibition measured by an IC50 ratio” value does the source give for PEG-25 stearate here?
**A.** > 1.0

**Q.** With “Macrogol-15 hydroxystearate [Solutol HS]” as the substance, how does the “P-gp inhibition measured by an IC50 ratio” value read?
**A.** > 1.0

**Q.** How did the “P-gp inhibition measured by an IC50 ratio” value turn out when PEG-12 stearate was run?
**A.** > 1.0

**Q.** How did the “P-gp inhibition measured by an IC50 ratio” value turn out when polysorbate 85 was run?
**A.** > 1.0

**Q.** With PEG-30 stearate as the substance, how does the “P-gp inhibition measured by an IC50 ratio” value read?
**A.** > 1.0
